The text below walks through data of patent EP3683219A1, “COMPOUND INHIBITING BUTYRYLCHOLINESTERASE” (Julius-Maximilians-Universität Würzburg, priority 2019, dated 2020).

Protein sequences, listed by entry. Tags and fused reporters are not part of them. Residues count along the entry.
UniProt P06276, 29-602 limits assumed: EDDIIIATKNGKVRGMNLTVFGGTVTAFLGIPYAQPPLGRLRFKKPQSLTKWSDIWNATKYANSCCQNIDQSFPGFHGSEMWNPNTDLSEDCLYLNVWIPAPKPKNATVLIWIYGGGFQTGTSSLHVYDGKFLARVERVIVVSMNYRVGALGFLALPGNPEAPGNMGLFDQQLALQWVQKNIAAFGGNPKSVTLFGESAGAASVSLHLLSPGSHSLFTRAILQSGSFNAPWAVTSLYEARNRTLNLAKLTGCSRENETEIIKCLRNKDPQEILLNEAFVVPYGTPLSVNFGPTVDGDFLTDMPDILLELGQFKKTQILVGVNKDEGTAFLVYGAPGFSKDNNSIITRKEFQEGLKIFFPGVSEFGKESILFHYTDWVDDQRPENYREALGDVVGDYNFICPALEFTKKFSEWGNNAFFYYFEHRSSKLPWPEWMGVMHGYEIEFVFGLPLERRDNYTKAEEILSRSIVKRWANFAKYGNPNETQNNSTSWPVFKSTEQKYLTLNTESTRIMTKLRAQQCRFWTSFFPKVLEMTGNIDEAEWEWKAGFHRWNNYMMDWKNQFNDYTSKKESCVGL
UniProt P22303, 32-614 limits assumed: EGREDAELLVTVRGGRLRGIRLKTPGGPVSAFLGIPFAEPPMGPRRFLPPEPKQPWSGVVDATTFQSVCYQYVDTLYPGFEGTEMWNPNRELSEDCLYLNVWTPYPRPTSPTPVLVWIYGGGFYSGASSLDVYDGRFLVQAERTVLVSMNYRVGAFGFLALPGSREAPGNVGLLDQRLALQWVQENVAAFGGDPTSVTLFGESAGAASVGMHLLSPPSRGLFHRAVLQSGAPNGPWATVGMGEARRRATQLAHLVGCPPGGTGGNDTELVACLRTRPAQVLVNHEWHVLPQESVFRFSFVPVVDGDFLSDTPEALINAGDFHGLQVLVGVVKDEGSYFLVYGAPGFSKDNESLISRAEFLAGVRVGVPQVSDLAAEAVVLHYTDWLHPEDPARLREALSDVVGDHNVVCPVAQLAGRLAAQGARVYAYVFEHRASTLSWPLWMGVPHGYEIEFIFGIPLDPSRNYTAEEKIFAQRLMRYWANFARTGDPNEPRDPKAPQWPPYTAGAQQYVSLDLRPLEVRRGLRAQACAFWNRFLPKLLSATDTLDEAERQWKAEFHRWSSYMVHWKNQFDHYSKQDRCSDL

In assay [1] the test system is Aβ25-35-induced spontaneous alternation deficits. Nature of the assay: Spontaneous alternation test in the Y-maze, Aβ25-35-injected mice. The assay is classed as in vivo, male Swiss mice. As to conditions: 0.3-3 mg/kg ip o.d. day 1 to 7; Y-maze day 8.
The test system of assay [2] is Aβ25-35-induced passive avoidance impairments. Nature of the assay: Step-through passive avoidance test, Aβ25-35-injected mice. The assay is classed as in vivo, male Swiss mice. As to conditions: 0.3-3 mg/kg ip o.d. day 1 to 7; retention day 10.
Assay [3] addresses T1, hBChE (Homo sapiens, UniProt P06276). As to conditions: hAChE over hBChE.
For assay [4], the target named is T1, hBChE. As to conditions: cited from earlier work.
In another assay the target is hAChE (Homo sapiens, UniProt P22303). As to conditions: cited from earlier work.
Assay [5] concerns the target T1, hBChE. Conditions: cited from earlier work. The source holds these as a separate data set.

“And” between values parts separate entries of the source, which are not always exact repeats. Equal values may be shown once.

For the compound `CCCCCCCNC(=O)Oc1ccc2c(c1)CN1CCc3ccccc3C1N2C` (stereo not drawn), the “effect on Aβ25-35-induced spontaneous alternation deficits” value in assay [1] is “attenuated the Aβ25-35-induced spontaneous alternation deficits at 1 and 3 mg/kg ip doses”. In addition, in assay [2], the “effect on Aβ25-35-induced passive avoidance deficits (step-through latency, retention)” value is “significantly prevented the Aβ25-35-induced passive avoidance deficits at all dose tested”.
One may read the IC50 as the concentration at which inhibition is half-maximal. As usually defined, the Kd is the equilibrium constant for the complex coming apart. At hBChE [3], `CN1c2ccc(OC(=O)NCCCCCCCF)cc2CN2CCc3ccccc3C21` (stereo not drawn) showed a Selectivity index (IC50 hAChE/IC50 hBChE) of 692. Further, the half-inhibitory concentration (IC50) was 5.2 nM and 5.25 nM at hBChE [4]; 3600 nM and 3630 nM at hAChE. The Kd on hBChE [5] was 24.3 nM.
